# Patent US10189836B2, “Therapeutic compounds, compositions and methods of use thereof” (Genentech, Inc., priority 2015, dated 2019)
# Tested on: JAK1-dependent STAT6 phosphorylation downstream of IL-13 stimulation in BEAS-2B cells
row,SMILES,IC50
1,"CN1CCN(C(=O)Cn2cc(Nc3nc4c(N5CC6CCC(C5)N6S(=O)(=O)Cc5ccc(C#N)cc5)cccn4n3)cn2)CC1 [Example 168, 4-[[3-[2-[[1-[2-(4-methylpiperazin-1-yl)-2-oxo-ethyl]pyrazo1-4-yl]amino]-[1,2,4]triazolo[1,5-a]pyridin-8-yl]-3,8-diazabicyclo[3.2.1]octan-8-yl]sulfonylmethyl]-benzonitrile]",226 nM
2,"CSC1CCN(C(=O)N2C3CCC2CN(c2cccn4nc(Nc5cnn(CC(=O)N6CCN(C)CC6)c5)nc24)C3)C1 (centres unmarked) [Example 172, 1-(4-methylpiperazin-1-yl)-2-[4-[[8-[8-(3-methylsulfanylpyrrolidine-1-carbonyl)-3,8-diazabicyclo[3.2.1]octan-3-yl]-[1,2,4]triazolo[1,5-a]pyridin-2-yl]amino]pyrazol-1-yl]ethanone]",25.8 nM
3,"CN1CCN(C(=O)Cn2cc(Nc3nc4c(N5CC6CCC(C5)N6C(=O)c5ccccc5)cccn4n3)cn2)CC1 [Example 70, 2-[4-[[8-(8-benzoyl-3,8-diazabicyclo[3.2.1]octan-3-yl)-[1,2,4]triazolo[1,5-a]pyridin-2-yl]amino]pyrazol-1-yl]-1-(4-methylpiperazin-1-yl)ethanone]",117 nM
4,"CN1CCN(C(=O)Cn2cc(Nc3nc4c(N5CC6CCC(C5)N6S(=O)(=O)c5cccc(Cl)c5)cccn4n3)cn2)CC1 [Example 88, 2-[4-[[8-[8-(3-chlorophenyl)sulfonyl-3,8-diazabicyclo[3.2.1]octan-3-yl]-[1,2,4]triazolo[1,5-a]pyridin-2-yl]amino]pyrazol-1-yl]-1 - (4-methylpiperazin-1-yl)ethanone]",14.2 nM
5,"CN1CCN(C(=O)Cn2cc(Nc3nc4c(N5CC6CCC(C5)N6S(=O)(=O)Cc5ccccc5)cccn4n3)cn2)CC1 [Example 108, 2-[4-[[8-(8-benzylsulfonyl-3,8-diazabicyclo[3.2.1]octan-3-yl)-[1,2,4]triazolo[1,5-a]pyridin-2-yl]amino]pyrazol-1-yl]-1-(4-methylpiperazin-1-yl)ethanone]",119 nM
6,"O=C(Cn1cc(Nc2nc3c(N4CC5CCC(C4)N5C(=O)CCC(F)(F)F)cccn3n2)cn1)N1CCC(N2CCOCC2)CC1 [Example 74, 4,4,4-trifluoro-1-[3-[2-[[1-[2-(4-morpholino-1-piperidyl)-2-oxo-ethyl]pyrazol-4-yl]amino]-[1,2,4]triazolo[1,5-a]pyridin-8-yl]-3,8-diazabicyclo[3.2.1]octan-8-yl]butan-1-one]",100 nM
7,CN1CCN(C(=O)Cn2cc(Nc3nc4c(N5CC6CCC(C5)N6C(=O)c5cnc(CC(F)(F)F)s5)cccn4n3)cn2)CC1 [Example 196],51.7 nM
8,"CN1CCN(C(=O)Cn2cc(Nc3nc4c(N5C[C@H]6CC[C@@H](C5)[C@H]6OCc5ccncc5)cccn4n3)cn2)CC1 [Example 144, 1-(4-methylpiperazin-1-yl)-2-[4-[[8-[rac-(1S,5R)-8-(4-pyridylmethoxy)-3 - azabicyclo[3.2.1]octan-3-yl]-[1,2,4]triazolo[1,5-a]pyridin-2-yl]amino]pyrazol-1-yl]ethanone]",39.2 nM
9,"CN1CCN(C(=O)Cn2cc(Nc3nc4c(N5CC6CCC(C5)N6CC(F)(F)F)cccn4n3)cn2)CC1 [Example 98, 1-(4-methylpiperazin-1-yl)-2-[4-[[8-[8-(2,2,2-trifluoroethyl)-3,8-diazabicyclo[3.2.1]octan-3-yl]-[1,2,4]triazolo[1,5-a]pyridin-2-yl]amino]pyrazol-1-yl]ethanone]",78 nM
10,"CN1CCN(C(=O)Cn2cc(Nc3nc4c(N5CC6CCC(C5)N6C(=O)C5(C#N)CC5)cccn4n3)cn2)CC1 [Example 23, 1-[3-[2-[[1-[2-(4-methylpiperazin-1-yl)-2-oxo-ethyl]pyrazol-4-yl]amino]-[1,2,4]triazolo[1,5-a]pyridin-8-yl]-3,8-diazabicyclo[3.2.1]octane-8-carbonyl] cyclopropanecarbonitrile]",40.1 nM
11,"CN1CCN(C(=O)Cn2cc(Nc3nc4c(N5CC6CCC(C5)N6C(=O)c5ccns5)cccn4n3)cn2)CC1 [Example 87, 2-[4-[[8-[8-(isothiazole-5-carbonyl)-3,8-diazabicyclo[3.2.1]octan-3-yl]-[1,2,4]triazolo[1,5-a]pyridin-2-yl]amino]pyrazol-1-yl]-1-(4-methylpiperazin-1-yl)ethanone]",25 nM
12,"CN1CCN(C(=O)Cn2cc(Nc3nc4c(N5CC6CCC(C5)N6S(=O)(=O)CCCC#N)cccn4n3)cn2)CC1 [Example 176, 4-[[3-[2-[[1-[2-(4-methylpiperazin-1-yl)-2-oxo-ethyl]pyrazol-4-yl]amino]-[1,2,4]triazolo[1,5-a]pyridin-8-yl]-3,8-diazabicyclo[3.2.1]octan-8-yl]sulfonyl]butanenitrile]",25.4 nM
13,"O=C(Cn1cc(Nc2nc3c(N4CC5CCC(C4)N5C(=O)N4CC(C(F)(F)F)C4)cccn3n2)cn1)N1CCN(C2COC2)CC1 [Example 194, 1-[4-(oxetan-3-yl)piperazin-1-yl]-2-[4-[[8-[8-[3-(trifluoromethyl)azetidine-1-carbonyl]-3,8-diazabicyclo[3.2.1]octan-3-yl]-[1,2,4]triazolo[1,5-a]pyridin-2-yl]amino]pyrazol-1-yl]ethanone]",123 nM
14,"CN1CCN(C(=O)Cn2cc(Nc3nc4c(N5CC6CCC(C5)N6C(=O)C(C)(C)CC(F)(F)F)cccn4n3)cn2)CC1 [Example 71, 4,4,4-trifluoro-2,2-dimethyl-1-[3-[2-[[1-[2-(4-methylpiperazin-1-yl)-2-oxo-ethyl]pyrazol-4-yl]amino]-[1,2,4]triazolo[1,5-a]pyridin-8-yl]-3,8-diazabicyclo[3.2.1]octan-8-yl]butan-1-one]",44 nM
15,"CC(C(=O)N1CCN(C)CC1)n1cc(Nc2nc3c(N4CC5CCC(C4)N5C(=O)C4CC(C(F)(F)F)C4)cccn3n2)cn1 (centres unmarked) [Example 123, 1-(4-methylpiperazin-1-yl)-2-[4-[[8-[8-(3-(trifluoromethyl)-cyclobutanecarbonyl]-3,8-diazabicyclo[3.2.1]octan-3-yl]-[1,2,4]triazolo[1,5-a]pyridin-2-yl]amino]pyrazol-1-yl]propan-1-one]",51.1 nM
16,"CN1CCN(C(=O)Cn2cc(Nc3nc4c(N5CC6CCC(C5)N6C(=O)CC5CC5(F)F)cccn4n3)cn2)CC1 (centres unmarked) [Example 16, 2-(2,2-difluorocyclopropyl)-1-[3-[2-[[1-[2-(4-methylpiperazin-1-yl)-2-oxo-ethyl]pyrazol-4-yl]amino]-[1,2,4]triazolo[1,5-a]pyridin-8-yl]-3,8-diazabicyclo[3.2.1]octan-8-yl]ethanone]",83.3 nM
17,"CN1CCN(C(=O)Cn2cc(Nc3nc4c(N5CC6CCC(C5)N6C(=O)NCC(F)(F)F)cccn4n3)cn2)CC1 [Example 110, 3-[2-[[1-[2-(4-methylpiperazin-1-yl)-2-oxo-ethyl]pyrazol-4-yl]amino]-[1,2,4]triazolo[1,5-a]pyridin-8-yl]-N-(2,2,2-trifluoroethyl)-3,8-diazabicyclo[3.2.1]octane-8-carboxamide]",138 nM
18,"CN1CCN(C(=O)Cn2cc(Nc3nc4c(N5C[C@H]6CC[C@@H](C5)[C@H]6OCc5ccccc5C#N)cccn4n3)cn2)CC1 [Example 142, 2-[[rac-(1S,5R)-3-[2-[[1-[2-(4-methylpiperazin-1-yl)-2-oxo-ethyl]pyrazol-4-yl]amino]-[1,2,4]triazolo[1,5-a]pyridin-8-yl]-3-azabicyclo[3.2.1]octan-8-yl]oxymethyl]benzonitrile]",35.4 nM
19,CN1CCN(C(=O)Cn2cc(Nc3nc4c(N5CC6CCC(C5)N6C(=O)c5ccccc5Cl)cccn4n3)cn2)CC1 [Example 114],95.8 nM
20,"CN1CCN(C(=O)Cn2cc(Nc3nc4c(N5CC6CCC(C5)N6C(=O)C5CCSC5)cccn4n3)cn2)CC1 (centres unmarked) [Example 50, 1-(4-methylpiperazin-1-yl)-2-[4-[[8-[8-(tetrahydrothiophene-3-carbonyl)-3,8-diazabicyclo[3.2.1]octan-3-yl]-[1,2,4]triazolo[1,5-a]pyridin-2-yl]amino]pyrazol-1-yl]ethanone]",34.7 nM
21,O=C(Cn1cc(Nc2nc3c(N4CC5CCC(C4)N5C(=O)[C@H]4C[C@@H](C(F)(F)F)C4)cccn3n2)cn1)N1CCN(C2CSC2)CC1 [Example 82],38.6 nM
22,"CN1CCN(C(=O)Cn2cc(Nc3nc4c(N5CC6CCC(C5)N6Cc5ccc(Cl)cc5)cccn4n3)cn2)CC1 [Example 22, 2-[4-[[8-[8-[(4-chlorophenyl)methyl]-3,8-diazabicyclo[3.2.1]octan-3-yl]-[1,2,4]triazolo[1,5-a]pyridin-2-yl]amino]pyrazol-1-yl]-1-(4-methylpiperazin-1-yl)ethanone; formic acid]",199 nM
23,"CN1CCN(C(=O)Cn2cc(Nc3nc4c(N5CC6CCC(C5)N6C(=O)C5CC5(F)F)cccn4n3)cn2)CC1 (centres unmarked) [Example 37, 2-[4-[[8-[8-(2,2-difluorocyclopropanecarbonyl)-3,8-diazabicyclo[3.2.1]octan-3-yl]-[1,2,4]triazolo[1,5-a]pyridin-2-yl]amino]pyrazol-1-yl]-1-(4-methylpiperazin-1-yl)ethanone]",72.6 nM
24,"CN1CCN(C(=O)Cn2cc(Nc3nc4c(N5C[C@H]6CC[C@@H](C5)[C@H]6N(C)C(=O)CC(F)(F)F)cccn4n3)cn2)CC1 [Example 164, 3,3,3-trifluoro-N-methyl-N-[rac-(1S,5R)-3-[2-[[1-[2-(4-methylpiperazin-1-yl)-2-oxo-ethyl]pyrazol-4-yl]amino]-[1,2,4]triazolo[1,5-a]pyridin-8-yl]-3-azabicyclo[3.2.1]octan-8-yl]propanamide]",66.1 nM
25,"CN1CCN(C(=O)Cn2cc(Nc3nc4c(N5CC6CCC(C5)N6C(=O)c5cccc(C#N)c5)cccn4n3)cn2)CC1 [Example 199, 3-[3-[2-[[1-[2-(4-methylpiperazin-1-yl)-2-oxo-ethyl]pyrazol-4-yl]amino]-[1,2,4]triazolo[1,5-a]pyridin-8-yl]-3,8-diazabicyclo[3.2.1]octane-8-carbonyl]benzonitrile]",91.4 nM
26,"CN1CCN(C(=O)Cn2cc(Nc3nc4c(N5CC6CCC(C5)N6C(=O)C5CC6C(C5)C6(F)F)cccn4n3)cn2)CC1 (centres unmarked) [Example 57, 2-[4-[[8-[8-(6,6-difluorobicyclo[3.1.0]hexane-3-carbonyl)-3,8-diazabicyclo[3.2.1]octan-3-yl]-[1,2,4]triazolo[1,5-a]pyridin-2-yl]amino]pyrazol-1-yl]-1-(4-methylpiperazin-1-yl)ethanone]",86.8 nM
